We go through 1 substance from patent US20050013753A1, “Heat-transfer systems” (priority 2003, published 2005).

Where two headings read alike, the source gives them in different places.

Data set [1] can be described thus: Resistance to oxidation and degradation at elevated temperature. Particulars: 100 to 150 degrees Celsius; versus propylene glycol or ethylene glycol.
The conditions of data set [2]: cited from earlier work.

Regarding 1,3-propanediol, in data set [1], the “Resistance to oxidation and degradation over time” value is “resists oxidation and degradation at these temperatures over time significantly better than either propylene glycol or ethylene glycol”. Also, the “Solubility in water” value in data set [2] (DuPont MSDS) is recorded as “Solubility in Water: Miscible with water”; in data set [2] (Shell datasheet), “Complete”.
